# Experimental data reported in patent publication US20030135023A1, “Peptide structures useful for competitive modulation of dipeptidyl peptidase IV catalysis” (priority 2001, published 2003).
# Amino acid sequences for entries named in this document (tags omitted). A change or cut given only in a name is not applied to a line headed by its entry. Residues count along the entry.
# UniProt P22411: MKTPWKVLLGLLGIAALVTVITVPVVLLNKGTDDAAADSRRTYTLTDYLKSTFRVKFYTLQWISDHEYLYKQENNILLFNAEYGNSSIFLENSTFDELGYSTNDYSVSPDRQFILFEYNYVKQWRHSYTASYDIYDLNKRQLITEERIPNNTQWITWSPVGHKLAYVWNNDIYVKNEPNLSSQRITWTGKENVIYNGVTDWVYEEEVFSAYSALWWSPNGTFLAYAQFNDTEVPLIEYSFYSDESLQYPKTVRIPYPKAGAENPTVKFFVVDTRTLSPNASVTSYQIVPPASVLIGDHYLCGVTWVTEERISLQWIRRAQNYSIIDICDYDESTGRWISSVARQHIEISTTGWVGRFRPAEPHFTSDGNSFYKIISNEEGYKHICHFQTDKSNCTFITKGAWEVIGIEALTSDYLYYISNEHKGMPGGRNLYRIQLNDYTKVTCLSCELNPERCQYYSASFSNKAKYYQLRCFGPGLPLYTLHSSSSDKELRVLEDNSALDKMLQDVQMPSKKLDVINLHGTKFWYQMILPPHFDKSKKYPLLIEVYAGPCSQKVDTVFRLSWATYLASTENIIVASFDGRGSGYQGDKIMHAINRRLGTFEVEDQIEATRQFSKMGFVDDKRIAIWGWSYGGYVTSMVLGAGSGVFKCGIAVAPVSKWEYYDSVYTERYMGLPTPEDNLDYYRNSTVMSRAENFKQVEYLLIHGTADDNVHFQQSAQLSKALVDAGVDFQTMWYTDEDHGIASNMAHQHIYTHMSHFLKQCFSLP
# UniProt P14740, 37-767 limits assumed: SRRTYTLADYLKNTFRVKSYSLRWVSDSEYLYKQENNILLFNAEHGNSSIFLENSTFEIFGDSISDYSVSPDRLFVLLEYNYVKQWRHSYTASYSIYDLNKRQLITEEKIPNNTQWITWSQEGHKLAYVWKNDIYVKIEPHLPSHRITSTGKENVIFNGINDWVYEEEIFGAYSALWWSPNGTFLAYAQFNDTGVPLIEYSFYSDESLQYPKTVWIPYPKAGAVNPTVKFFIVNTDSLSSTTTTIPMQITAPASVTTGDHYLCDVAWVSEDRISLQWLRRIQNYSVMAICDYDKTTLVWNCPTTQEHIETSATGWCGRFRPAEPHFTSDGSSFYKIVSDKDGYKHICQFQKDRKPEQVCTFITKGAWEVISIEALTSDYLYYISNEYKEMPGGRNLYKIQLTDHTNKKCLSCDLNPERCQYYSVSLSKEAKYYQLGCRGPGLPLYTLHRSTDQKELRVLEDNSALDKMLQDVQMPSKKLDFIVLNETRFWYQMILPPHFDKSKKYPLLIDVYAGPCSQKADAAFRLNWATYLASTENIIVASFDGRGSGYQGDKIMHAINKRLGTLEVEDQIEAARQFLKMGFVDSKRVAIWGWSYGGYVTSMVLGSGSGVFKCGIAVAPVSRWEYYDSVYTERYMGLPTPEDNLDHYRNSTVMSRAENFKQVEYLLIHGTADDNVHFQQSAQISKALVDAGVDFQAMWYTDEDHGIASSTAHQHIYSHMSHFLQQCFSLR
# Where “and” joins values, the source holds several entries; their conditions need not be identical. Equal values may be shown once.
# Tests used:
# purified porcine DP IV [1] = target: T1, purified porcine DP IV (Sus scrofa, UniProt P22411); assay: Determination of IC50-values, Gly-Pro-pNA cleavage by DP IV; assay type: biochemical; conditions: Gly-Pro-pNA 0.4 mM, HEPES pH 7.6, 30° C.
# Experimental: (§1) 100 μl inhibitor stock solution were mixed with 100 μl buffer (HEPES pH 7.6) and 50 μl substrate (Gly-Pro-pNA, final concentration 0.4 mM) and preincubated at 30° C. Reaction was started by addition of 20 μl purified porcine DP IV. Formation of the product pNA was measured at 405 nm over 10 min using the HTS 7000 Plus plate reader (Perkin Elmer) and slopes were calculated. The final inhibitor concentrations ranged between 1 mM and 30 nM.
# For calculation of IC50-values GraFit 4.0.13 (Erithacus Software) was used.
# plasma DP IV = target: T2, plasma DP IV (Rattus norvegicus, UniProt P14740); assay: Plasma DP IV activity after intravasal and oral administration in Wistar rats; assay type: in vivo
# T2 construct: The assay mixture consisted of 80 μl reagent and 20 μl plasma; from tissue; host or cells: plasma of Wistar rats
# Experimental: Rats with intact catheter function were given the test substances intravasal (intraarterial) or oral, respectively, in random order (N=3 Wistar rats in each group). As positive control, […]. isoleucine thiazolidine*fumarate were administered intravasal.
# After overnight fasting, 100 μl samples of heparinized arterial blood were collected at −30, −5, and 0 min into ice-cooled Eppendorf tubes (see below). The test substances were dissolved freshly in 1.0 ml saline (0.154 mol/l) and were given at 0 min either oral via a feeding tube ([…], 75 mm; Fine Science Tools, Heidelberg, Germany) or intravasal. For the intravasal route, the catheter was immediately flushed with 30 μl saline and an additional 1 ml of saline was given orally via the feeding tube.
# Arterial blood samples were taken thereafter at 5, 10 (only in a limited number of experiments), 20, 40, 60 and 120 min from the carotid catheter of the conscious unrestrained rats and were always given into ice cooled Eppendorf tubes (Eppendorf-Netheler-Hinz, Hamburg, Germany) filled with 10 μl 1 M citrate buffer pH 3.0 for prevention of further hydrolysis of tripeptides by plasma DP IV activity. Eppendorf tubes were centrifuged immediately (12000 rpm for 2 min, Hettich Zentrifuge EBA 12, Tuttlingen; Germany): The plasma fractions were store on ice until analysis or were deeply frozen at −20 ° C. until analysis.
# Plasma DP IV activity: The assay mixture consisted of 80 μl reagent and 20 μl plasma. Kinetic measurements of the formation of the yellow product 4-nitroaniline were performed at 390 nm for 1 min at 30° C. after 2 min pre-incubation at the same temperature. The activity was expressed as arbitrary units [AU] and DP IV activity [mU/ml].
# The absolute values of plasma DP IV activity, the relative change of plasma DP IV activity and the time and extent of maximal inhibition were calculated. Data presentation included the presentation of area under the curve (AUC), which was used for evaluation of extent of inhibition of plasma DP IV activity during the two hours of observation. AUC was calculated using the trapezoidal rule.
# To compare relative changes of parameters under the conditions of different initial values of DP IV activity an uniform standardised mean (values) was set up at the beginning of the test (see Figures and Tables).
# Statistical evaluations were performed with Microsoft Excel® 97. All variables are presented as mean and standard deviation (SD). Treatment groups were compared by Student's t-test, within-group changes by paired t-test. Two-tailed values of p<0.05 were considered significant.
# purified porcine DP IV [2] = target: T1, purified porcine DP IV; assay: Determination of Ki-values, Gly-Pro-pNA cleavage by DP IV; assay type: biochemical; conditions: Gly-Pro-pNA 0.05-0.4 mM
# Experimental: as §1
# Calculations were performed using the GraFit Software.
# [3] = intravasal 10 mg/kg, individual animals
# [4] = intravasal 30 mg/kg, individual animals
# [5] = intravasal 100 mg/kg, individual animals
smiles,measurement,setting,value
"CC[C@H](C)[C@H](N)C(=O)N1CCC[C@H]1C(=O)N[C@H](C(=O)O)[C@@H](C)CC [Diprotin A, Ile-Pro-Ile]",IC50,purified porcine DP IV [1],4.69 µM
same,"DPIV inhibition at tmax, p.o.","plasma DP IV; Wistar rats, p.o., 100 mg/kg",no inhibition
same,Plasma DP IV activity,"plasma DP IV; intravasal 10 mg/kg, 5 min, Mean",22.4 mU/ml
same,Plasma DP IV activity,"plasma DP IV; intravasal 10 mg/kg, 5 min, Standard. Mean",23.3 mU/ml
same,Plasma DP IV activity,"plasma DP IV; intravasal 10 mg/kg, 5 min, individual animals",23.6 mU/ml and 23.2 mU/ml and 20.2 mU/ml
same,Plasma DP IV activity,"plasma DP IV; intravasal 10 mg/kg, 20 min, Mean",24.0 mU/ml
same,Plasma DP IV activity,"plasma DP IV; intravasal 10 mg/kg, 20 min, Standard. Mean",24.9 mU/ml
same,Plasma DP IV activity,"plasma DP IV; intravasal 10 mg/kg, 20 min, individual animals",24.2 mU/ml and 27.2 mU/ml and 20.6 mU/ml
same,Plasma DP IV activity,"plasma DP IV; intravasal 10 mg/kg, 40 min, Mean",23.5 mU/ml
same,Plasma DP IV activity,"plasma DP IV; intravasal 10 mg/kg, 40 min, Standard. Mean",24.4 mU/ml
same,Plasma DP IV activity,"plasma DP IV; intravasal 10 mg/kg, 40 min, individual animals",24.3 mU/ml and 25.4 mU/ml and 20.6 mU/ml
same,Plasma DP IV activity,"plasma DP IV; intravasal 10 mg/kg, 60 min, Mean",24.0 mU/ml
same,Plasma DP IV activity,"plasma DP IV; intravasal 10 mg/kg, 60 min, Standard. Mean",25.0 mU/ml
same,Plasma DP IV activity,"plasma DP IV; intravasal 10 mg/kg, 60 min, individual animals",24.3 mU/ml and 28.5 mU/ml and 19.3 mU/ml
same,Plasma DP IV activity,"plasma DP IV; intravasal 10 mg/kg, 120 min, Mean",22.0 mU/ml
same,Plasma DP IV activity,"plasma DP IV; intravasal 10 mg/kg, 120 min, Standard. Mean",22.9 mU/ml
same,Plasma DP IV activity,"plasma DP IV; intravasal 10 mg/kg, 120 min, individual animals",24.8 mU/ml and 23.2 mU/ml and 18.0 mU/ml
same,DP IV AUC 0-20,"plasma DP IV; intravasal 10 mg/kg, Mean",−17.5 mU · min/ml
same,DP IV AUC 0-120,"plasma DP IV; intravasal 10 mg/kg, Mean",−93.2 mU · min/ml
same,Drop of plasma DP IV activity,"plasma DP IV; intravasal 10 mg/kg, Mean",1.7 mU/ml
same,Plasma DP IV activity Minimum,"plasma DP IV; intravasal 10 mg/kg, Standard. Mean",22.9 mU/ml
same,DP IV AUC 0-20,plasma DP IV; [3],−33.7 mU · min/ml and −16.4 mU · min/ml and −2.4 mU · min/ml
same,DP IV AUC 0-120,plasma DP IV; [3],−171.4 mU · min/ml and 14.3 mU · min/ml and −122.5 mU · min/ml
same,Drop of plasma DP IV activity,plasma DP IV; [3],2.1 mU/ml and 2.6 mU/ml and 0.3 mU/ml
same,Plasma DP IV activity Minimum,plasma DP IV; [3],23.6 mU/ml and 23.2 mU/ml and 20.2 mU/ml
same,Time of Minimum,plasma DP IV; [3],5
same,Plasma DP IV activity,"plasma DP IV; intravasal 30 mg/kg, 5 min, Mean",16.8 mU/ml
same,Plasma DP IV activity,"plasma DP IV; intravasal 30 mg/kg, 5 min, Standard. Mean",17.3 mU/ml
same,Plasma DP IV activity,"plasma DP IV; intravasal 30 mg/kg, 5 min, individual animals",25.0 mU/ml and 15.4 mU/ml and 10.1 mU/ml
same,Plasma DP IV activity,"plasma DP IV; intravasal 30 mg/kg, 20 min, Mean",25.6 mU/ml
same,Plasma DP IV activity,"plasma DP IV; intravasal 30 mg/kg, 20 min, Standard. Mean",26.0 mU/ml
same,Plasma DP IV activity,"plasma DP IV; intravasal 30 mg/kg, 20 min, individual animals",32.9 mU/ml and 28.5 mU/ml and 15.4 mU/ml
same,Plasma DP IV activity,"plasma DP IV; intravasal 30 mg/kg, 40 min, Mean",22.1 mU/ml
same,Plasma DP IV activity,"plasma DP IV; intravasal 30 mg/kg, 40 min, Standard. Mean",22.5 mU/ml
same,Plasma DP IV activity,"plasma DP IV; intravasal 30 mg/kg, 40 min, individual animals",25.4 mU/ml and 25.0 mU/ml and 15.8 mU/ml
same,Plasma DP IV activity,"plasma DP IV; intravasal 30 mg/kg, 60 min, Mean",24.0 mU/ml
same,Plasma DP IV activity,"plasma DP IV; intravasal 30 mg/kg, 60 min, Standard. Mean",24.4 mU/ml
same,Plasma DP IV activity,"plasma DP IV; intravasal 30 mg/kg, 60 min, individual animals",31.1 mU/ml and 28.1 mU/ml and 12.7 mU/ml
same,Plasma DP IV activity,"plasma DP IV; intravasal 30 mg/kg, 120 min, Mean",24.7 mU/ml
same,Plasma DP IV activity,"plasma DP IV; intravasal 30 mg/kg, 120 min, Standard. Mean",25.1 mU/ml
same,Plasma DP IV activity,"plasma DP IV; intravasal 30 mg/kg, 120 min, individual animals",34.2 mU/ml and 25.0 mU/ml and 14.9 mU/ml
same,DP IV AUC 0-20,"plasma DP IV; intravasal 30 mg/kg, Mean",−69.8 mU · min/ml
same,DP IV AUC 0-120,"plasma DP IV; intravasal 30 mg/kg, Mean",−128.3 mU · min/ml
same,Drop of plasma DP IV activity,"plasma DP IV; intravasal 30 mg/kg, Mean",7.7 mU/ml
same,Plasma DP IV activity Minimum,"plasma DP IV; intravasal 30 mg/kg, Mean",16.8 mU/ml
same,Time of Minimum,"plasma DP IV; intravasal 30 mg/kg, Mean",5.0
same,Plasma DP IV activity Minimum,"plasma DP IV; intravasal 30 mg/kg, Standard. Mean",17.3 mU/ml
same,DP IV AUC 0-20,plasma DP IV; [4],−32.9 mU · min/ml and −123.9 mU · min/ml and −52.6 mU · min/ml
same,DP IV AUC 0-120,plasma DP IV; [4],50.4 mU · min/ml and −273.0 mU · min/ml and −162.3 mU · min/ml
same,Drop of plasma DP IV activity,plasma DP IV; [4],5.3 mU/ml and 12.7 mU/ml
same,Plasma DP IV activity Minimum,plasma DP IV; [4],25.0 mU/ml and 15.4 mU/ml and 10.1 mU/ml
same,Time of Minimum,plasma DP IV; [4],5
same,area under the curve of DP IV activity,"plasma DP IV; intravasal 100 mg/kg b.w., AUC 0-20 min (FIG. 2), p<0.05",−159±40 mU*min*ml^−1
same,Plasma DP IV activity,"plasma DP IV; intravasal 100 mg/kg, 5 min, Mean",5.1 mU/ml
same,Plasma DP IV activity,"plasma DP IV; intravasal 100 mg/kg, 5 min, Standard. Mean",11.1 mU/ml
same,Plasma DP IV activity,"plasma DP IV; intravasal 100 mg/kg, 5 min, individual animals",5.3 mU/ml and 4.8 mU/ml
same,Plasma DP IV activity,"plasma DP IV; intravasal 100 mg/kg, 10 min, Mean",7.2 mU/ml
same,Plasma DP IV activity,"plasma DP IV; intravasal 100 mg/kg, 10 min, Standard. Mean",13.2 mU/ml
same,Plasma DP IV activity,"plasma DP IV; intravasal 100 mg/kg, 10 min, individual animals",6.6 mU/ml and 8.8 mU/ml and 6.1 mU/ml
same,Plasma DP IV activity,"plasma DP IV; intravasal 100 mg/kg, 20 min, Mean",18.9 mU/ml
same,Plasma DP IV activity,"plasma DP IV; intravasal 100 mg/kg, 20 min, Standard. Mean",24.9 mU/ml
same,Plasma DP IV activity,"plasma DP IV; intravasal 100 mg/kg, 20 min, individual animals",19.7 mU/ml and 22.4 mU/ml and 14.5 mU/ml
same,Plasma DP IV activity,"plasma DP IV; intravasal 100 mg/kg, 40 min, Mean",19.4 mU/ml
same,Plasma DP IV activity,"plasma DP IV; intravasal 100 mg/kg, 40 min, Standard. Mean",25.4 mU/ml
same,Plasma DP IV activity,"plasma DP IV; intravasal 100 mg/kg, 40 min, individual animals",21.1 mU/ml and 22.8 mU/ml and 14.5 mU/ml
same,Plasma DP IV activity,"plasma DP IV; intravasal 100 mg/kg, 60 min, Mean",19.3 mU/ml
same,Plasma DP IV activity,"plasma DP IV; intravasal 100 mg/kg, 60 min, Standard. Mean",25.3 mU/ml
same,Plasma DP IV activity,"plasma DP IV; intravasal 100 mg/kg, 60 min, individual animals",19.7 mU/ml and 20.2 mU/ml and 18.0 mU/ml
same,Plasma DP IV activity,"plasma DP IV; intravasal 100 mg/kg, 120 min, Mean",19.2 mU/ml
same,Plasma DP IV activity,"plasma DP IV; intravasal 100 mg/kg, 120 min, Standard. Mean",25.2 mU/ml
same,Plasma DP IV activity,"plasma DP IV; intravasal 100 mg/kg, 120 min, individual animals",21.9 mU/ml and 20.0 mU/ml and 15.8 mU/ml
same,DP IV AUC 0-20,"plasma DP IV; intravasal 100 mg/kg, Mean",−159.0 mU · min/ml
same,DP IV AUC 0-120,"plasma DP IV; intravasal 100 mg/kg, Mean",−133.0 mU · min/ml
same,Drop of plasma DP IV activity,"plasma DP IV; intravasal 100 mg/kg, Mean",13.9 mU/ml
same,Plasma DP IV activity Minimum,"plasma DP IV; intravasal 100 mg/kg, Mean",5.1 mU/ml
same,Time of Minimum,"plasma DP IV; intravasal 100 mg/kg, Mean",5.0
same,Plasma DP IV activity Minimum,"plasma DP IV; intravasal 100 mg/kg, Standard. Mean",11.1 mU/ml
same,DP IV AUC 0-20,plasma DP IV; [5],−194.1 mU · min/ml and −166.7 mU · min/ml and −116.2 mU · min/ml
same,DP IV AUC 0-120,plasma DP IV; [5],−233.6 mU · min/ml and −185.1 mU · min/ml and 19.7 mU · min/ml
same,Drop of plasma DP IV activity,plasma DP IV; [5],15.8 mU/ml and 16.2 mU/ml and 9.6 mU/ml
same,Plasma DP IV activity Minimum,plasma DP IV; [5],5.3 mU/ml and 4.8 mU/ml
same,Time of Minimum,plasma DP IV; [5],5
same,time after administration at which the initial level of DP IV activity was restored / inhibition stopped,plasma DP IV; intravasal administration,20 min
same,inhibition at 100 mg/kg,"plasma DP IV; rat, iv, read-out: DPIV inhibition at tmax, i.v.",73%
same,Ki,purified porcine DP IV [2],3.45 µM
